Source: US5049694A, “Pharmaceutical composition having relaxing activity which contains a nitrate ester as active substance” (Cedona Pharmaceuticals B.V., priority 1988, dated 1991)
This is a selection: effects in other tests are not listed, and their absence says nothing.

Test system: contracted strips of the rats' arota
Assay: relaxing potency in vitro on phenylefrine-contracted strips of rat aorta
Conditions: read-out: EC50 (concentration with which relaxation took place up to 50% of the contraction induced by 10^-7 M phenylefrine); rat thoracal aorta strips, contracted with 10^-7 M phenylefrine, cumulative concentrations, 37° C.
Experimental: The relaxing potency of the compounds as described is tested in vitro on contracted strips of the rats' arota. Male Wistar rates (200-220 g) are killed by decapitation. The thoracal aorta is removed and is helically cut into strips (length: ±10 mm, width: ±2 mm; 4 strips per rat).
The strips are suspended in organ baths filled with 20 ml of Krebs' medium with a constant temperature of 37° C. passing through O2 /CO2 (95/5) and subsequently for 2 h equilibrated under an isotonic load of 500 mg. The medium is renewed every 20 minutes.
After equilibration contraction takes place by addition of 10^-7M phenylefrine to the medium. After reaching the maximal contraction the composition with the organic nitrate ester to be tested in cumulative concentration steps is relaxed.
The degree of relaxation is expressed as a percentage of the maximal contraction (=100%) reached with 10^-7 M phenylefrine. The relaxing potency of the tested compounds is expressed as the EC50 : the concentration with which relaxation took place up to 50% of the contraction induced by 10^-7 M phenylefrine. From a number of compounds the EC50 -values have been stated in Table 1. For comparison the EC50 -values of glyceryltrinitrate and isosorbidedinitrate have also been included.

With `O=[N+]([O-])OCCCCCCO[N+](=O)[O-]` as the compound, how does the EC50 read?
Its EC50 is 19 nM.
